By UniProt entry, the sequences of proteins in these tests, tags left out. Where a name states a change or a piece, a line headed by the entry shows the natural chain unless it says otherwise.
UniProt P43116: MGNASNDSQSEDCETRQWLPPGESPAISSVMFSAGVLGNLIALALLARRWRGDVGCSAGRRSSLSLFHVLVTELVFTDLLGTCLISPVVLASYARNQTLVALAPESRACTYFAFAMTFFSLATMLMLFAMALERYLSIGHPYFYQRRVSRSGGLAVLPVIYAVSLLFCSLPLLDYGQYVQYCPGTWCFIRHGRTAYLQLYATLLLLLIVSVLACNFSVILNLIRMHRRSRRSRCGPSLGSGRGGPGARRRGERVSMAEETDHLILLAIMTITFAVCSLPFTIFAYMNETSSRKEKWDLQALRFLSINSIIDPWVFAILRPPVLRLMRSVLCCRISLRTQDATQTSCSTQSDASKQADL

In ChEMBL document CHEMBL3804774, “Discovery of G Protein-Biased EP2 Receptor Agonists” (ACS Med Chem Lett, 2016):

Experiments:
[1] = target: T1, Prostaglandin E2 receptor EP2 subtype (Homo sapiens, UniProt P43116); assay: Agonist activity at human EP2 receptor expressed in CHO cells assessed as increase in intracellular cAMP level after 30 mins by HTRF method; assay type: functional, cell-based
[2] = target: T1, Prostaglandin E2 receptor EP2 subtype; assay: Agonist activity at PK2-tagged human EP2 receptor expressed in HEK293 cells assessed as induction of EA-tagged beta-arrestin recruitment incubated for 90 mins by beta-galactosidase reporter gene assay; assay type: cell-based

CCCCC[C@H](O)/C=C/[C@H]1[C@H](O)CC(=O)[C@@H]1C/C=C\CCCC(=O)O [DINOPROSTONE]
EC50 [1]: 1.9 nM
EC50 [2]: 346 nM
